# Experimental data: paper PMC11363325, “A Novel Prodrug Strategy Based on Reversibly Degradable Guanidine Imides for High Oral Bioavailability and Prolonged Pharmacokinetics of Broad-Spectrum Anti-influenza Agents” (ACS Central Science, 2024)
# Key:
# Test in all cases: microbe, parasite or virus in culture
# [1] = system: A/Hong Kong/8/1968 (HK; H3N2); details: Influenza A virus, H3N2, MDCK
# B/Lee/1940 (Lee) = details: Influenza B virus, MDCK
# [2] = system: A/Puerto Rico/8/1934 (PR8; H1N1); details: Influenza A virus, MDCK
Compound,EC50 [1],EC50 (B/Lee/1940 (Lee)),EC50 [2]
CCC(CC)O[C@@H]1C=C(C(=O)O)C[C@H](N=C(N2C(=O)CC(C)C2=O)N2C(=O)CC(C)C2=O)[C@H]1NC(C)=O (stereo partly shown) [OSC-GCDI(M)],20 ± 10 nM,5.55 ± 1.65 µM,
CCC(CC)O[C@@H]1C=C(C(=O)O)C[C@H](N=C(N2C(=O)[C@H]3CC=CC[C@H]3C2=O)N2C(=O)[C@H]3CC=CC[C@H]3C2=O)[C@H]1NC(C)=O [OSC-GCDI(Ce)],20 ± 10 nM,,30 ± 10 nM
